The values that follow come from patent US20190135943A1.

This assay deals with CD3ε on Cynomolgus pan T cells (cynomolgus monkey) (UniProt Q95LI5). In words: flow cytometry on cynomolgus pan T cells, background-corrected MFI.

With “Activated CI104: Activated 3954-0011-C225v5Fcmt4-h20GG-0011-v16sc-H-N (bispecific antibody)”, the EC50 (read off the curve) turned out to be 4 nM.
